Experimental data reported in article PMC8691691 (ACS Chemical Neuroscience, 2021).

What was measured:
GlyT2 W217F mutant = molecular target: T1, GlyT2 W217F mutant (Rattus norvegicus, UniProt P58295, W217F); experiment: [3H]glycine transport by GlyT2 mutant in COS7 cells; assay type: cell-based
T1 construct: expressed in transfected cells; host or cells: COS7
T1 sequence (P58295 1-799 W217F): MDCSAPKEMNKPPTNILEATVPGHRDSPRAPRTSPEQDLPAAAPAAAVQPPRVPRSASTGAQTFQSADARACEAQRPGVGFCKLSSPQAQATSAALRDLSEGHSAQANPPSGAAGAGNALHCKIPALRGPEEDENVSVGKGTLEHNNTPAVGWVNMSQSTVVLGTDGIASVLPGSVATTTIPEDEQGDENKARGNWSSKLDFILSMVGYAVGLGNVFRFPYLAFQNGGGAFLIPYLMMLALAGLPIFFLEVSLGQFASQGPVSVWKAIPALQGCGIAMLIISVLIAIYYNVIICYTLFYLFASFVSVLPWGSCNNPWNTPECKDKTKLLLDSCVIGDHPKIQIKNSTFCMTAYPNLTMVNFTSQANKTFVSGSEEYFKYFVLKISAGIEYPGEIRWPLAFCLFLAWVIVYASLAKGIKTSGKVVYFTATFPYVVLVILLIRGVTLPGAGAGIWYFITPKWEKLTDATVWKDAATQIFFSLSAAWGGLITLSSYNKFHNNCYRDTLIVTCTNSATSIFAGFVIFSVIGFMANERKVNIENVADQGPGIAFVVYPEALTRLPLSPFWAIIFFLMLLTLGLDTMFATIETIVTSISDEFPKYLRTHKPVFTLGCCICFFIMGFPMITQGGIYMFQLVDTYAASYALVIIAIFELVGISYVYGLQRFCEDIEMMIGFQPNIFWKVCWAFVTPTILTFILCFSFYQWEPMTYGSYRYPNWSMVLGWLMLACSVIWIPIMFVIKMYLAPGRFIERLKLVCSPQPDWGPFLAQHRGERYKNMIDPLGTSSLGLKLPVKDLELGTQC
Description: (§1) To validate the predicted interactions between the inhibitors and GlyT2, we used systematic site-directed mutagenesis to construct substitution mutants of the potential residues involved in ligand binding. […] The GlyT2 residues predicted to interact with the inhibitors through its side chain were replaced by amino acids expected to force the loss of the interaction. In the cases where the interaction occurred through the backbone, the inserted amino acid sought to alter the disposition of the substituted residue to lose the coordination. […] Most of the mutants were active, although depicted lower activity as compared to the wild-type. […] These two residues are preserved throughout the NSS family, and Tyr-289 has proven to have an important structural role in stabilizing the unwound portion of the TM1 helix, whereas Tyr-209 has a key role in S1 site formation through its interaction with Ser-481.[25],[30],[33] Other residues such as Leu-213 or Ser-479 are involved in the formation of the glycine-binding site and Na^+-binding site, respectively.
(§2) Substitution mutants were generated with the QuikChange II Site-Directed Mutagenesis kit (Agilent Technologies, Santa Clara, CA, USA), using rGlyT2 or rGlyT1 subcloned in pCDNA3.[47] The complete coding region of all of the constructs was sequenced to verify that only the desired mutation had been introduced. Plasmids from two independent Escherichia coli colonies were expressed in eukaryotic cells as indicated below, and [^3H]glycine transport and/or immunodetection was performed for verification. COS7 cells were grown and transfected using Turbofect Transfection Reagent (Thermo Fisher Scientific, Waltham, MA, USA), following the manufacturer’s protocol (2 μL reagent/μg of DNA). Cells were incubated for 48 h at 37 °C until used.
(§3) COS7 cells were washed and incubated at 37 °C in HEPES-buffered saline (HBS, in mM: 150 NaCl, 10 HEPES-Tris, pH 7.4, 1 CaCl2, 5 KCl, 1 MgSO4, 10 glucose) containing 2 μCi/mL [2-^3H]glycine (1.6 TBq/mmol; PerkinElmer Life Sciences), at 10 μM final glycine concentration if not otherwise stated.[48] At the end of the desired time (usually 10 min), reactions were washed and terminated by aspiration. Protein concentration (Bradford) and [2-^3H]glycine levels (liquid scintillation, LKB 1219 Rackbeta) were determined. Glycine accumulation measured in mock-transfected cells was subtracted from that of the transporter-transfected cells and normalized by the protein concentration. Kinetic analyses were performed by varying glycine concentration in the uptake medium between 0.5 and 500 μM. […] The determinations of the IC50 were performed initially by diluting compounds by log steps with the vehicle from 1 nM to 1 μM. Then, exact IC50 values were determined by means of 8-point concentration curves performed over a suitable range using half log dilutions with the vehicle. A nonlinear curve fitting method was used to obtain IC50 values using Graphpad Prism software, version 6.0, Graphpad, San Diego, CA, USA.

GlyT2 A210C mutant = molecular target: T2, GlyT2 A210C mutant (Rattus norvegicus, UniProt P58295, A210C); experiment: as above; assay type: cell-based
T2 construct: expressed in transfected cells; host or cells: COS7
T2 sequence (P58295 1-799 A210C): T1 sequence (P58295 1-799 W217F) with A210C, F217W
Description: as §1, §2, §3

## NCC(=O)O [Gly, glycine]
GlyT2 W217F mutant
  EC50: 245 ± 27 µM
GlyT2 A210C mutant
  EC50: 336 ± 10 µM

Positions count from the first letter of the chain named.
